Data: patent publication US20180258163A1 (Chugai, published 2018)
Changes are numbered by the printed parent chain. One block for each binder: values may come before it.

Target: T1, soluble human FcγRIIb (human, UniProt P31994 43-217, limits assumed)
T1 construct: soluble His-tagged form; also called hFcγRIIb
T1 sequence (looked up): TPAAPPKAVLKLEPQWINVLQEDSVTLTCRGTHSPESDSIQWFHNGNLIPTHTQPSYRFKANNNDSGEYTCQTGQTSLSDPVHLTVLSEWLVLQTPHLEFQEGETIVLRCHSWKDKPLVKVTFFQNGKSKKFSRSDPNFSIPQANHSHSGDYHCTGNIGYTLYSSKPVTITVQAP
Assay: SPR, Ab-antigen (C5) complex over captured hFcγRIIb, pH 7.4, 25C
Description: An appropriate amount of an anti-His antibody was fixed onto Sensor chip CM5 (GE Healthcare) by the amine coupling method using a His capture kit (GE Healthcare) to capture hFcγRIIb. […] 20 mM N-(2-Acetamido)-2-aminoethanesulfonic acid, 150 mM NaCl, 1.2 mM CaCl₂, and 0.05% (w/v) Tween 20 at pH 7.4 was used as the running buffer, and the respective buffer was also used to dilute the soluble hFcγRIIb. To regenerate the sensor chip, 10 mM glycine-HCl at pH 1.5 was used. All measurements were carried out at 25° C. […] To calculate the parameters, the BIACORE T100 Evaluation Software (GE Healthcare) was used.

B5: CFP0020H0261-002-G1dP1/CFP0018H0012-002-G1dN1/CFP0020L233-k0 (bispecific antibody, human IgG1, kappa, name in Kabat numbering)
heavy 1: not shown
heavy 2: not shown
light: DIQMTQSPSSLSASVGDRVTITCRASQSIHNDLAWYQQKPGKAPKLLIYEASELQSGVPSRFSGSGSGTDFTLTISSLQPEDFATYYCQHYSSYPYTFGQGTKVEIKRTVAAPSVFIFPPSDEQLKSGTASVVCLLNNFYPREAKVQWKVDNALQSGNSQESVTEQDSKDSTYSLSSTLTLSKADYEKHKVYACEVTHQGLSSPVTKSFNRGEC
- BIACORE fold (relative binding, original Ab2=1.00): 1.09 fold

B8: CFP0020H0261-G1dP1/CFP0018H0012-G1dN1/CFP0020L233-011-k0 (bispecific antibody, human IgG1, kappa)
heavy 1: not shown
heavy 2: not shown
light: B5 light with L46R, Y49K
- BIACORE fold (relative binding, original Ab2=1.00): 0.14 fold

B10: CFP0020H0261-G1dP1/CFP0018H0012-014-G1dN1/CFP0020L233-k0 (bispecific antibody, human IgG1, kappa, name in Kabat numbering)
heavy 1: not shown
heavy 2: not shown
light: B5 light
- BIACORE fold (relative binding, original Ab2=1.00): 0.8 fold

B11: CFP0020H0261-G1dP1/CFP0018H0012-G1dN1/CFP0020L233-022-k0 (bispecific antibody, human IgG1, kappa)
heavy 1: not shown
heavy 2: not shown
light: B5 light with G41R, S76R, Q79K
- BIACORE fold (relative binding, original Ab2=1.00): 2.04 fold

B14: CFP0020H0261-G1dP1/CFP0018H0012-024-G1dN1/CFP0020L233-k0 (bispecific antibody, human IgG1, kappa, name in Kabat numbering)
heavy 1: not shown
heavy 2: not shown
light: B5 light
- BIACORE fold (relative binding, original Ab2=1.00): 0.72 fold

B16: CFP0020H0261-G1dP1/CFP0018H0012-G1dN1/CFP0020L233-017-k0 (bispecific antibody, human IgG1, kappa)
heavy 1: not shown
heavy 2: not shown
light: B5 light with L46R, Y49K, T74K, S77R
- BIACORE fold (relative binding, original Ab2=1.00): 0.18 fold

B18: CFP0020H0261-G1dP1/CFP0018H0012-G1dN1/CFP0020L233-036-k0 (bispecific antibody, human IgG1, kappa)
heavy 1: not shown
heavy 2: not shown
light: B5 light with Q27R, G41R, S76R, Q79K
- BIACORE fold (relative binding, original Ab2=1.00): 2.45 fold

B19: CFP0020H0261-G1dP1/CFP0018H0012-G1dN1/CFP0020L233-004-k0 (bispecific antibody, human IgG1, kappa)
heavy 1: not shown
heavy 2: not shown
light: B5 light with S52K, S56K
- BIACORE fold (relative binding, original Ab2=1.00): 0.75 fold

B21: CFP0020H0261-G1dP1/CFP0018H0012-G1dN1/CFP0020L233-021-k0 (bispecific antibody, human IgG1, kappa)
heavy 1: not shown
heavy 2: not shown
light: B5 light with Q27R, S76R, Q79K
- BIACORE fold (relative binding, original Ab2=1.00): 1.77 fold

B22: CFP0020H0261-G1dP1/CFP0018H0012-G1dN1/CFP0020L233-002-k0 (bispecific antibody, human IgG1, kappa)
heavy 1: not shown
heavy 2: not shown
light: B5 light with Q27R
- BIACORE fold (relative binding, original Ab2=1.00): 0.92 fold

More lines, now with the values ahead:

- BIACORE fold (relative binding, original Ab2=1.00): 8.61 fold
B1: CFP0020H0261-G1dP1/CFP0018H0012-G1dN1/CFP0020L233-034-k0 (bispecific antibody, human IgG1, kappa)
heavy 1: not shown
heavy 2: not shown
light: B5 light with Q27R, S65R, T69R, T74K, S77R

- BIACORE fold (relative binding, original Ab2=1.00): 1.96 fold
B2: CFP0020H0261-G1dP1/CFP0018H0012-G1dN1/CFP0020L233-016-k0 (bispecific antibody, human IgG1, kappa)
heavy 1: not shown
heavy 2: not shown
light: B5 light with G41R, T74K, S77R

- BIACORE fold (relative binding, original Ab2=1.00): 1.08 fold
B3: CFP0020H0261-G1dP1/CFP0018H0012-016-G1dN1/CFP0020L233-k0 (bispecific antibody, human IgG1, kappa, name in Kabat numbering)
heavy 1: not shown
heavy 2: not shown
light: B5 light

- BIACORE fold (relative binding, original Ab2=1.00): 1.83 fold
B4: CFP0020H0261-G1dP1/CFP0018H0012-G1dN1/CFP0020L233-005-k0 (bispecific antibody, human IgG1, kappa)
heavy 1: not shown
heavy 2: not shown
light: B5 light with T74K, S77R

- BIACORE fold (relative binding, original Ab2=1.00): 1.46 fold
B6: CFP0020H0261-G1dP1/CFP0018H0012-G1dN1/CFP0020L233-045-k0 (bispecific antibody, human IgG1, kappa)
heavy 1: not shown
heavy 2: not shown
light: B5 light with S65R, Q79K

- BIACORE fold (relative binding, original Ab2=1.00): 2.24 fold
B7: CFP0020H0261-G1dP1/CFP0018H0012-G1dN1/CFP0020L233-027-k0 (bispecific antibody, human IgG1, kappa)
heavy 1: not shown
heavy 2: not shown
light: B5 light with Q27R, G41R, T74K, S77R

- BIACORE fold (relative binding, original Ab2=1.00): 0.96 fold
B9: CFP0020H0261-005-G1dP1/CFP0018H0012-005-G1dN1/CFP0020L233-k0 (bispecific antibody, human IgG1, kappa, name in Kabat numbering)
heavy 1: not shown
heavy 2: not shown
light: B5 light

- BIACORE fold (relative binding, original Ab2=1.00): 0.78 fold
B12: CFP0020H0261-G1dP1/CFP0018H0012-G1dN1/CFP0020L233-009-k0 (bispecific antibody, human IgG1, kappa)
heavy 1: not shown
heavy 2: not shown
light: B5 light with Q37R

- BIACORE fold (relative binding, original Ab2=1.00): 0.95 fold
B13: CFP0020H0261-G1dP1/CFP0018H0012-G1dN1/CFP0020L233-007-k0 (bispecific antibody, human IgG1, kappa)
heavy 1: not shown
heavy 2: not shown
light: B5 light with Q27K

- BIACORE fold (relative binding, original Ab2=1.00): 2.43 fold
B15: CFP0020H0261-G1dP1/CFP0018H0012-G1dN1/CFP0020L233-037-k0 (bispecific antibody, human IgG1, kappa)
heavy 1: not shown
heavy 2: not shown
light: B5 light with G41R, S52R, S56R, S76R, Q79K

- BIACORE fold (relative binding, original Ab2=1.00): 1.43 fold
B17: CFP0020H0261-G1dP1/CFP0018H0012-G1dN1/CFP0020L233-018-k0 (bispecific antibody, human IgG1, kappa)
heavy 1: not shown
heavy 2: not shown
light: B5 light with S52R, S56R, T74K, S77R

- BIACORE fold (relative binding, original Ab2=1.00): 0.18 fold
B20: CFP0020H0261-G1dP1/CFP0018H0012-G1dN1/CFP0020L233-023-k0 (bispecific antibody, human IgG1, kappa)
heavy 1: not shown
heavy 2: not shown
light: B5 light with L46R, Y49K, S76R, Q79K

- BIACORE fold (relative binding, original Ab2=1.00): 0.96 fold
B23: CFP0020H0261-018-G1dP1/CFP0018H0012-018-G1dN1/CFP0020L233-k0 (bispecific antibody, human IgG1, kappa, name in Kabat numbering)
heavy 1: not shown
heavy 2: not shown
light: B5 light

- BIACORE fold (relative binding, original Ab2=1.00): 0.34 fold
B24: CFP0020H0261-037-G1dP1/CFP0018H0012-037-G1dN1/CFP0020L233-k0 (bispecific antibody, human IgG1, kappa, name in Kabat numbering)
heavy 1: not shown
heavy 2: not shown
light: B5 light
